Earlier results on one substance are cited in patent US20240377385A1, “METHODS AND COMPOSITIONS OF MATTER FOR TREATING CANCER AND PREDICTING RESPONSE TO THERAPY” (ICCA INC., priority 2023, published 2024).

For the series the following is noted: cited from earlier work.

Consider interleukin 2, for which, under “after the first phase of treatment with high-dose interleukin 2 alone, 11 patients”, the “Mean plasma ascorbic acid levels” value was 0.13 ± 0.08 mg/dL. The “drop of mean plasma ascorbic acid levels” value (after the first phase of treatment with high-dose interleukin 2 alone) is listed as 80%. For the same substance, under “in eight of 11 patients during the remainder of the treatment”, the “plasma ascorbic acid levels, undetectable” value is “less than 0.05 mg/dl”. For the same substance, the “plasma ascorbic acid levels” value (throughout the remainder of the treatment (interleukin 2 plus lymphokine-activated killer cells)) was 0.08 to 0.13 mg/dL.
